This is an account of results in paper PMC10139140, “Synthesis of Novel 2-(Cyclopentylamino)thiazol-4(5H)-one Derivatives with Potential Anticancer, Antioxidant, and 11β-HSD Inhibitory Activities” (International Journal of Molecular Sciences, 2023).

By UniProt entry, the sequences of proteins in these tests, tags left out. Where a name states a change or a piece, a line headed by the entry shows the natural chain unless it says otherwise.
UniProt P28845: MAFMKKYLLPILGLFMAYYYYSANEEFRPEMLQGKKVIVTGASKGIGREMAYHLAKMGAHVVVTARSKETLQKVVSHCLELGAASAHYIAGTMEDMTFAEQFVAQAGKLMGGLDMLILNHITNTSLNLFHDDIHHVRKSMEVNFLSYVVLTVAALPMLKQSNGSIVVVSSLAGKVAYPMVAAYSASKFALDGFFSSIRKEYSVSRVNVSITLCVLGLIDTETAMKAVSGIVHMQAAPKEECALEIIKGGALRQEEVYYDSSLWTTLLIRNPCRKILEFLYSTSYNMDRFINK

This experiment addresses T1, 11β-HSD1 (Homo sapiens, UniProt P28845).
T1 construct: Human liver microsomes were used as a source of 11β-HSD1 enzyme; tissue XenoTech Lot No. 1410013; host or cells: pooled human liver microsomes, mixed gender
Put plainly: Inhibition of 11β-HSD1 (cortisone to cortisol, human liver microsomes, cortisol ELISA). It counts as biochemical. How it is done:
11β-HSD1 assays: carbenoxolone (disodium salt) (Sigma-Aldrich, Poznań, Poland), cortisone, NADPH tetrasodium salt, phosphate buffer powder (Sigma-Aldrich, Poznań, Poland), pooled human liver microsomes, mixed gender, 1 mL, 20 mg/mL Lot No. 1410013—XenoTech, Cortisol Elisa Ref DkO001 Lot No. 5671A (DiaMetra, Spello, Italy), ELISA Kit for 11-Beta-Hydroxysteroid Dehydrogenase Type 1 Lot No. L211008799 (Cloud-Clone Corp., Wuhan, China), and PBS Lot No. H161008 (Pan Biotech, Aidenbach, Germany).
. Standard 96-well microplates were filled with reagent mixture: cortisone/NADPH (20 μL, to achieve the final concentration of 200 nM/2 μM), microsomes (10 μL, 1.13 μg of 11β-HSD1 in 1 mL) solution in PBS (final amount of 2.5 μg), phosphate buffer (60 μL, pH 7.4), and 10 µL of compounds 3a-3j dissolved in the mixture containing 1% of DMSO and 99% of water. The resulting solution with a final volume of 100 µL was incubated for 2.5 h at 37 °C. To stop the reaction, 10 µL of a 100 µM solution of 18β-glycyrrhetinic acid in PBS was added. The level of cortisol obtained in the reaction was measured by commercially available ELISA kit.
Calibration curves to determine IC50 values for compounds 3a–3i were obtained using their solutions at concentrations of 0.078, 0.156, 0.3125, 0.625, 1.25, 2.5, 5.0, and 10.0 µM and using standard procedure and conditions as described in the previous sections. […]
In general terms: Microsomes from liver hold many membrane-bound enzymes, among them those of drug oxidation.

The structures appear in SMILES notation.

Broadly, the IC50 is the concentration that inhibits the measured activity by half. For `CC1(C)[C@@H](OC(=O)CCC(=O)O)CC[C@]2(C)[C@H]3C(=O)C=C4[C@@H]5C[C@@](C)(C(=O)O)CC[C@]5(C)CC[C@@]4(C)[C@]3(C)CC[C@@H]12` [carbenoxolone, reference compound], it took 80 ± 6 nM to reach half-maximal inhibition (IC50).
